Data as given in US7442519B2, “KCNQ2-15 potassium channel” (priority 2002, dated 2008).

Test system: Xenopus laevis oocytes
Assay: Electrophysiological analysis (two-electrode voltage clamp) of homotetrameric potassium channels
Format: cell-based
Conditions: 0.4 ng of DNA injected
Method: The animal was anesthetized and pieces of the ovary were surgically removed and individual oocytes were dissected away in a saline solution (ND96) containing 96 mM NaCl, 2 mM KCl, 2 mM CaCl2, 2 mM MgCl2 and 5 mM HEPES at pH 7.4. Stage V and VI oocytes were treated at room temperanre for 2 h with collagenase type 1A (1 mg/ml) in the presence of 0.2 mg/ml trypsin inhibitor in saline solution to discard follicular cells. The concentrations were determined by measuring the absorbance at 260 nm. DNA corresponding to KCNQ2, 3H2 and 3H9 K+ channels were subcloned in PEKO vector in order to generate the respective cRNAS. cRNA concentrations were measured by absorbance at 260 nm. cRNA solutions were injected (about 50 nL/oocyte) using a pressure microinjector (Inject+matic, Geneve). Oocytes were then kept for 2-6 days in ND96 solution supplemented wirn 50 U/mL penicillin and 50 U/mL streptomycin.
In a 0.3 mL perfusion chamber, a single oocyte was impaled with two standard glass microelectrode (0.5-2 Mohm resistance) filled with 3M KCl and maintained under voltage clamp using a Dagan TEV200 amplifier system, USA. Electrical stimulations, data acquisition and analyses were performed using pClamp software (Axon Instruments, USA). […]

KCNQ2-fl: full-length KCNQ2 polypeptide of SEQ ID NO: 7
intensity of the M-current generated by the homotetrameric potassium channel: about 1 μA
